Measurements: PubChem BioAssay AID2107 (National Center for Advancing Translational Sciences (NCATS), 2009)
Hit rate of the full screen: of about 240,000 compounds, about 20 (0.008%) were called active. All entries are inconclusive by the source's own rule. Clear calls are listed elsewhere. Calls follow the shape of the dose curve; as a rule, active = well fitted inhibition curve with a large enough effect; inconclusive = small, poorly fitted or top-dose-only effect, or effect the other way; inactive = flat fitted curve, though single readings scatter.

The chains behind the UniProt entries cited, without tags or fusion partners. Where a name states a change or a piece, a line headed by the entry shows the natural chain unless it says otherwise.
UniProt P06280: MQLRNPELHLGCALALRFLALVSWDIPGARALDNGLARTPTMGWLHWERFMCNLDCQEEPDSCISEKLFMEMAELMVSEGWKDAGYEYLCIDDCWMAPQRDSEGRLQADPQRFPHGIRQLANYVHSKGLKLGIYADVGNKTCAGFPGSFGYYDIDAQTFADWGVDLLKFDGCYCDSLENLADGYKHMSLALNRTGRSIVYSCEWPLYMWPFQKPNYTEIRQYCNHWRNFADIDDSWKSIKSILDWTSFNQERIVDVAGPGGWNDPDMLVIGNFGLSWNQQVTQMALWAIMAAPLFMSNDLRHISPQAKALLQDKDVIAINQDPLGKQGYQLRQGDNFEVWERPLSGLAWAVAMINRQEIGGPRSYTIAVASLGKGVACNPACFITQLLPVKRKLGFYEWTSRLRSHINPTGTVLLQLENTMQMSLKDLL

Molecular target: Alpha-galactosidase A (Homo sapiens) (UniProt P06280)
Test: qHTS Assay for Inhibitors and Activators of Human alpha-Galactosidase From Spleen Homogenate
Conditions: 4MU-alpha-Gal fluorescence, 40 min
From the text: NIH Chemical Genomics Center [NCGC] NIH Molecular Libraries Probe Production Centers Network [MLPCN] MLPCN Grant: R03 MH084842-01 Assay Submitter (PI): Wei Zheng NCGC Assay Overview: Alpha-galactosidase is a homodimeric glycoprotein that hydrolyzes the terminal alpha-galactosyl moieties from glycolipids and glycoproteins. Deficiency of this enzyme results in Fabry Disease with progressive accumulation of globotriaosylceramide and other glycosphingolipids in vascular endothelial cells that causes renal failure, myocardial infarction and stroke, and premature death in patients. […]
NCGC Assay Protocol Summary: This is a fluorogenic enzyme assay with 4-methylumbelliferyl-alpha-D-galactopyranoside as the substrate and human spleen homogenate containing alpha-galactosidase as the enzyme preparation. Upon hydrolysis of this fluorogenic substrate, the resulting product, 4-methylumbelliferone (which excites at 365 nm and emits at 440 nm) can be detected by a fluorescence plate reader. […] The AC50 values were determined from concentration-response data modeled with the standard Hill equation. […] (3) Add 2 ul of substrate (1 mM final) (4) Incubate at 37C for 40 min (5) Add 2 ul stop solution (1M NaOH and 1M Glycine mixture, pH 10) (6) Detect the assay plate in a ViewLux plate reader (PerkinElmer) with Ex=365 nm and Em=440nm. […]

Row | Compound | Potency
1 | O=C(OC1CN2CCC1CC2)c1ccc(Cl)cc1 (stereo unspecified) | inconclusive: 50.1 µM
